Results on three compounds are retold here after patent publication US20110262355A1, “COMPOSITIONS COMPRISING ENZYME-CLEAVABLE OPIOID PRODRUGS AND INHIBITORS THEREOF” (priority 2010, published 2011).

The assay has as its target T1, trypsin from bovine pancreas (Bos taurus, UniProt P00760).
T1 sequence (P00760 24-246): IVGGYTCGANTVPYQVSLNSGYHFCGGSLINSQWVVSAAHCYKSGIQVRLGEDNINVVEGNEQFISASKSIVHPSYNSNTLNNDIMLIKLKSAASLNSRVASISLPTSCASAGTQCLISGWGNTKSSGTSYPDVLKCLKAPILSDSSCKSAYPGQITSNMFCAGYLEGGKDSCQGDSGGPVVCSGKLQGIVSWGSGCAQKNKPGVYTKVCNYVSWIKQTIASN
Put plainly: In vitro trypsin conversion of prodrugs to hydromorphone and inhibition by trypsin inhibitor. The note with it: 0.761 mM prodrug; 0.02 to 0.0228 mg/mL trypsin; 37° C.; no trypsin inhibitor.
With “[2-((S)-2-malonylamino-4-amino-pentanoyl amino)-ethyl]-ethyl-carbamic acid hydromorphone ester [Compound PC-5]”, the “Rate of HM formation, umols/h/umol trypsin Average ± sd” value is 106 ± 2 umols/h/umol trypsin.

As to “[2-(2-Malonyl-5-guanidino-pentanoylamino)-ethyl]-ethyl-carbamic acid hydromorphone ester [Compound PC-6]”, the “Rate of HM formation, umols/h/umol trypsin Average ± sd” value is on record as 262 ± 11 umols/h/umol trypsin.

Turning to `CC(=O)NC(CCCNC(=N)N)C(=O)NCCN(C)C(=O)Oc1ccc2c3c1OC1C(=O)CCC4C(C2)N(C)CCC314` (stereo not drawn) [Compound PC-1, hydromorphone 3-(N-methyl-N-(2-N′-acetylarginylamino)) ethylcarbamate], the “Rate of HM formation, umols/h/umol trypsin Average ± sd” value was 230 ± 8 umols/h/umol trypsin.
